# Apparent affinities of Ab-14 variants for a coronavirus HR2 peptide

The target is the same throughout: PDVDLGDISGINAS, from the HR2 region of SARS-CoV-2 spike.

Ab-14 is the parent antibody, in scFv form: VH, then the linker GGGGSGGGGSGGGGS, then VL. The light chain is unchanged in all variants.
VH: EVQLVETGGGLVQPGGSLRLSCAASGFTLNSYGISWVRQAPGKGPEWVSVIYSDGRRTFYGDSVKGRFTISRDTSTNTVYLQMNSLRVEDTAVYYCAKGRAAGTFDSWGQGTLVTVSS
VL: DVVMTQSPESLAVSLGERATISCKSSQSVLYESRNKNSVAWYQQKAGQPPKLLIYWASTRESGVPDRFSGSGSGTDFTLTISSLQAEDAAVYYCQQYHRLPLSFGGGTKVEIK

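The starting antibody came from a phage panning campaign against this peptide. The library (AAYL49) carries one to three amino acid substitutions per variant, with no insertions or deletions. The scFvs were displayed on barcoded MATa yeast, the peptide on MATalpha yeast. Mating (16 h, 30 °C) was followed by selection of diploids and sequencing of their barcodes. The ratio of observed to expected reads was calibrated, replicate by replicate, on BCL2-family standards whose Kd was known from biolayer interferometry. The assay was run in three technical replicates.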

Changes read parent residue, position, new residue, counted from the first residue of the VH shown. The read-out is the apparent dissociation constant on a log10 scale (nM): the lower, the stronger. A pair that was not seen in that replicate is written "nd"; this usually means weak binding, but a binder can also be missed. Parent in this assay: reference entry 0.65, copy in this library 4.11 (one replicate of three).

For I34W/R57F/G61T, the assay gave nd, 4.19, nd.
For G33W/D62C/D106L, the assay gave nd, nd, nd.
For R57S/S63V, the assay gave nd, nd, nd.
For T58V/V64H/R100F, the assay gave nd, nd, nd.
For G26A/G55E/Y60E, the assay gave nd, nd, nd.
For G26F/G55C/S63V, the assay gave nd, nd, nd.
For F59C/S63A, the assay gave 2.50, 3.05, 3.07.
For G61F/G103C/S107F, the assay gave nd, 3.68, 3.56.
For N30E/Y52N/S53I, the assay gave nd, 4.80, 3.81.
For I34F/S63Q/A101L, the assay gave nd, nd, 3.44.
For T58K/Y60W/T104E, the assay gave 3.82, nd, nd.
For F27L/D62Y/T104S, the assay gave nd, nd, nd.
For F27Q/K65F/T104F, the assay gave 3.71, 3.34, 3.03.
For V50E/R56M/F105R, the assay gave nd, nd, 3.85.
For G26I/V64N/D106R, the assay gave nd, 3.06, nd.
For S35Y/D106K, the assay gave 4.13, nd, nd.
For I34F/S63L, the assay gave nd, nd, nd.
For G61N/G103Y, the assay gave nd, 3.63, nd.
For L29H/S31T/Y32K, the assay gave 2.79, 2.46, 2.69.
For V50R/T58Y/D106S, the assay gave nd, nd, nd.
For I51K/R56C/R57S, the assay gave nd, nd, nd.
For G55L/G61Q/S63M, the assay gave nd, 3.51, nd.
For G55Y/K65N/F105T, the assay gave nd, nd, nd.
For V50F/I51Q/V64P, the assay gave nd, nd, nd.
For T28A/I51K/T58H, the assay gave nd, nd, nd.
For N30Q/S63Y/K65N, the assay gave nd, nd, nd.
For V50H/G99L/G103L, the assay gave nd, 3.99, nd.
For G33P/V50N/A101P, the assay gave 6.08, 3.62, nd.
For F59S/G99N/A102I, the assay gave nd, nd, nd.
For Y32P/I34T/V64K, the assay gave nd, nd, nd.
For F27D/R57A/Y60N, the assay gave nd, 3.81, nd.
For L29Y/S53L/T58Q, the assay gave nd, 3.46, nd.
For S53T/R57E, the assay gave 3.98, nd, nd.
For I51C/V64E/T104Y, the assay gave 3.14, nd, nd.
For G33T/R57V/S63P, the assay gave nd, nd, nd.
For N30Y/K65Y/A101N, the assay gave 1.98, 1.52, 1.65.
For G26V/S35D/D54G, the assay gave nd, nd, nd.
For I51K/D54T/V64C, the assay gave nd, nd, 4.93.
For L29T/F59K/S107T, the assay gave nd, 4.53, nd.
For T28F/T58Y/A101P, the assay gave nd, nd, nd.

Excerpt, the first 3 entries:

changes,"log10 Kd, replicates"
I34W/R57F/G61T,"nd, 4.19, nd"
G33W/D62C/D106L,"nd, nd, nd"
R57S/S63V,"nd, nd, nd"

As a blank, each scFv also met three strains without target: over library AAYL49, 15% of these pairings were detected, typically at 4.06 and seldom below 2.83.

Values reported by Engelhart et al. 2022, doi:10.1038/s41597-022-01779-4 (FLAb copy).